In assay [1] the target is 5-hydroxytryptamine receptor 2A (Homo sapiens) (UniProt P28223). As to the kind of experiment: Percent inhibition against 5-hydroxytryptamine 2A receptor using [3H]ketanserin at 1 uM.
Assay [2] addresses GABA-A receptor; anion channel (Homo sapiens) (UniProt P14867+P47870+P18507+P28472+P48169+Q99928+Q9UN88+P34903+O00591+O14764+Q8N1C3+P18505+P78334+P47869+P31644+Q16445). Put plainly: Percent inhibition of [3H]flunitrazepam binding to GABA-A benzodiazepine receptor at 1 uM.
The target in assay [3] is Adrenergic receptor alpha-2 (Homo sapiens) (UniProt P08913+P18825+P18089). As to the kind of experiment: Percent inhibition against alpha-2 adrenergic receptor using [3H]clonidine at 1 uM.
The target in assay [4] is Adrenergic receptor beta (Homo sapiens) (UniProt P08588+P07550+P13945). As to the kind of experiment: Inhibition of [3H]dihydroalprenolol binding to beta adrenergic receptor at 1 uM.
In assay [5] the target is Adrenergic receptor alpha-1 (Homo sapiens) (UniProt P35348+P25100+P35368). Put plainly: Percent inhibition against alpha-1 adrenergic receptor using [3H]prazosin at 1 uM.
In assay [6] the target is D(4) dopamine receptor (Homo sapiens) (UniProt P21917). As to the kind of experiment: Percent inhibition against Dopamine receptor D4 using [3H]spiperone at 1 uM.
For assay [7], the target named is Muscarinic acetylcholine receptor (Homo sapiens) (UniProt P20309+P08173+P11229+P08172+P08912). Put plainly: Percent inhibition against Muscarinic acetylcholine receptor using [3H]oxotremorine-M at 1 uM.
Assay [8] addresses Opioid receptors; mu/kappa/delta (Homo sapiens) (UniProt P41145+P41143+P35372). Put plainly: Percent inhibition against Opioid receptors using [3H]etorphine at 1 uM.
For assay [9], the target named is D(1A) dopamine receptor (Homo sapiens) (UniProt P21728). Put plainly: Percent inhibition against Dopamine receptor D1 using [3H]-SCH- 23990 at 1 uM.

Amino acid sequences for entries named in this document (tags omitted). A change or cut given only in a name is not applied to a line headed by its entry.
UniProt P47870: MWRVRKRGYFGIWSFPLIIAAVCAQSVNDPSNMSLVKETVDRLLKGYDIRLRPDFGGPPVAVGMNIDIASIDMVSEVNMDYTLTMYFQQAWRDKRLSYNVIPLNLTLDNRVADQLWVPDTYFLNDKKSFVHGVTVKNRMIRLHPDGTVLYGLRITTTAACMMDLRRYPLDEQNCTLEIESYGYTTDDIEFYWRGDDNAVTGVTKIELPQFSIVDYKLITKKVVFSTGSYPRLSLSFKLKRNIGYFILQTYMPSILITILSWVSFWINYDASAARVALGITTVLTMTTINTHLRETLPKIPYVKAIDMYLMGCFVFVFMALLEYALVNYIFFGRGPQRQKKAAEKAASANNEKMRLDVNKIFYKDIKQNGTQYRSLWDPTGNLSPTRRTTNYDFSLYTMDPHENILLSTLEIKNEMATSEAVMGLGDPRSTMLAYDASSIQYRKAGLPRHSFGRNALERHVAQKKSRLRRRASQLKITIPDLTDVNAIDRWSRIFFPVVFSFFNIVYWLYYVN
UniProt P18507: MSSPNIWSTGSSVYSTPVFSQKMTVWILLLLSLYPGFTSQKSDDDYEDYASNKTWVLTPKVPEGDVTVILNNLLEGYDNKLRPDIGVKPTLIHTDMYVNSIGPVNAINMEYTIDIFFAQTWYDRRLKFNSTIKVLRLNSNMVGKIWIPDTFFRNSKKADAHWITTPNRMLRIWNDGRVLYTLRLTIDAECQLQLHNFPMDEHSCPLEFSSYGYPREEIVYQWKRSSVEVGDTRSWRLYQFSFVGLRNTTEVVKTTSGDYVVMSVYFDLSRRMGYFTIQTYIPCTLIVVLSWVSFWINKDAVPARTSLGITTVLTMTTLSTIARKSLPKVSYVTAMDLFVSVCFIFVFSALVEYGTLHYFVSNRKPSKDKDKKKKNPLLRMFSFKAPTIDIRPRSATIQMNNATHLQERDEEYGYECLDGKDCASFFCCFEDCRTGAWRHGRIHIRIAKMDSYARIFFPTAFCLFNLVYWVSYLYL
UniProt Q9UN88: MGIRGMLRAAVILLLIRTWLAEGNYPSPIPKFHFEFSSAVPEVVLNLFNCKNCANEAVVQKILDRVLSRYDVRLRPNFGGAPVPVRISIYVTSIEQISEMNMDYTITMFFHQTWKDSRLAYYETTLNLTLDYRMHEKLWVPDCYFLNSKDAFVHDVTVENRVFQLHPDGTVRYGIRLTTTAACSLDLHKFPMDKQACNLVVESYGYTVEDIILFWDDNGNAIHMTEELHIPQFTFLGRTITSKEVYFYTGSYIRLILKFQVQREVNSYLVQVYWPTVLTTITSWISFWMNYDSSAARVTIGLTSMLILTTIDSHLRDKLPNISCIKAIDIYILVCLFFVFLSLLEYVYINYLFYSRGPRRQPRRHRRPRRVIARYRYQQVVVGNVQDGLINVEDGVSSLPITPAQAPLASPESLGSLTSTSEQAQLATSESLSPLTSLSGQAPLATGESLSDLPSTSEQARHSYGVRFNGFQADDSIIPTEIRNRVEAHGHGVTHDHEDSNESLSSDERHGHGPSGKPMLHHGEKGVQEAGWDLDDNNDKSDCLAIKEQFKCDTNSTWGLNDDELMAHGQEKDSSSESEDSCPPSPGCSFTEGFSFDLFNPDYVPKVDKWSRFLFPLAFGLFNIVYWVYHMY
UniProt Q8N1C3: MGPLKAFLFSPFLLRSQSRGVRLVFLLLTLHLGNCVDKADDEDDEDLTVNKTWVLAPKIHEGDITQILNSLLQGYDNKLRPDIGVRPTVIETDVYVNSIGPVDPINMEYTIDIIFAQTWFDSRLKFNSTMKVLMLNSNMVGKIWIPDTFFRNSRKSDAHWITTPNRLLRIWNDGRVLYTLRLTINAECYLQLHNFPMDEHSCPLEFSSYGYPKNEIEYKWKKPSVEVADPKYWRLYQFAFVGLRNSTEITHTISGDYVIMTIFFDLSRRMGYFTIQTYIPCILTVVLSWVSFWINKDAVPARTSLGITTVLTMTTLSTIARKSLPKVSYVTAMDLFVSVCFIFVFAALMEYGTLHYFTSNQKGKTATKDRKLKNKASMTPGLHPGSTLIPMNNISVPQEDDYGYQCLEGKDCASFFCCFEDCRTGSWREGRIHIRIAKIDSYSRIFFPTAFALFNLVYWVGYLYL
UniProt P47869: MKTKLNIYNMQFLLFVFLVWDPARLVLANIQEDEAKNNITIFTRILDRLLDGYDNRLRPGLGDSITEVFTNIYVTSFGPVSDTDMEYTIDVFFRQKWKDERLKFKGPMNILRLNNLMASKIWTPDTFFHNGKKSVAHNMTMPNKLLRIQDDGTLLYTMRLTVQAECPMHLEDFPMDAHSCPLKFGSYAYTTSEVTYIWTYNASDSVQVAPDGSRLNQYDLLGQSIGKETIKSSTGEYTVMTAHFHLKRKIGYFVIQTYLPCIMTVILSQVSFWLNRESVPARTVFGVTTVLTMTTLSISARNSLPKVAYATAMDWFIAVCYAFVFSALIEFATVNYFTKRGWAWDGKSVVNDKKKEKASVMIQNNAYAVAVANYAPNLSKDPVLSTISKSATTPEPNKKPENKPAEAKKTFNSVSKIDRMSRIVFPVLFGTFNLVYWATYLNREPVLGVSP
UniProt P31644: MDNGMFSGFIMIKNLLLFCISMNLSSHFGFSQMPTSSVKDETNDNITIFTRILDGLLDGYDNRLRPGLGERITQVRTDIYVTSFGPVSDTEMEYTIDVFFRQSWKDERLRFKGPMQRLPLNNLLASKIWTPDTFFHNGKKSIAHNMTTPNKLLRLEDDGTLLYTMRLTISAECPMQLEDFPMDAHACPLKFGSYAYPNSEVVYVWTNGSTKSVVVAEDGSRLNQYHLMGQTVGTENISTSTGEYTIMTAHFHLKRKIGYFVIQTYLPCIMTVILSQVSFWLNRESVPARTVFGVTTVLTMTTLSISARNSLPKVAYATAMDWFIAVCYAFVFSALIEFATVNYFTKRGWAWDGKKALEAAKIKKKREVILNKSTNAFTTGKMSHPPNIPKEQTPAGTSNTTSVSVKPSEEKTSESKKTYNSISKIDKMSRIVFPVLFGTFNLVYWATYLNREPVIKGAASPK
UniProt P18825, whole entry, looked up: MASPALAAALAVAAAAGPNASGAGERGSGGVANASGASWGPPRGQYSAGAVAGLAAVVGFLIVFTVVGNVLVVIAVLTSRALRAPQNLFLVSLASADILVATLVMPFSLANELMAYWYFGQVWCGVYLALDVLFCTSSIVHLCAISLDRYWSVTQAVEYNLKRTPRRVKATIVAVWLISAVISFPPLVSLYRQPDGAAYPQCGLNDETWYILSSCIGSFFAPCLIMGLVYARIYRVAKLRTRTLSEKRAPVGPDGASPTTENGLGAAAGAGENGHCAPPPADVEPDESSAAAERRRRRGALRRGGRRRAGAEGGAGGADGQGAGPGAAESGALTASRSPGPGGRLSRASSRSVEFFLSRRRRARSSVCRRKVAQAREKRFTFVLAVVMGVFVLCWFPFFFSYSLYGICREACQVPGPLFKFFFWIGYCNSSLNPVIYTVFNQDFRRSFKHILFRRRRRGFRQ
UniProt P35348: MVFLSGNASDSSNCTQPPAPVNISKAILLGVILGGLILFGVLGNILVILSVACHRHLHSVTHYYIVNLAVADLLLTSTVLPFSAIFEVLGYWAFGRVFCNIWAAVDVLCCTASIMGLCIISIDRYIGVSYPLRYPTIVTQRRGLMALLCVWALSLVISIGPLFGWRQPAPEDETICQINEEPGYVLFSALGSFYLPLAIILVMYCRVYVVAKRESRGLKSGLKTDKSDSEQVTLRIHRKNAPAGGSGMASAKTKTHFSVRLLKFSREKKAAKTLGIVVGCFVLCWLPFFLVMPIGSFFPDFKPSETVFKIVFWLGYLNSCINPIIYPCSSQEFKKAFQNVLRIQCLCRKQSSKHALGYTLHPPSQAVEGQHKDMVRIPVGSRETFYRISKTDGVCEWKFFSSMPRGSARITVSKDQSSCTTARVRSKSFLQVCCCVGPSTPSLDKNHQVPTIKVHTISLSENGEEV
UniProt P25100, whole entry, looked up: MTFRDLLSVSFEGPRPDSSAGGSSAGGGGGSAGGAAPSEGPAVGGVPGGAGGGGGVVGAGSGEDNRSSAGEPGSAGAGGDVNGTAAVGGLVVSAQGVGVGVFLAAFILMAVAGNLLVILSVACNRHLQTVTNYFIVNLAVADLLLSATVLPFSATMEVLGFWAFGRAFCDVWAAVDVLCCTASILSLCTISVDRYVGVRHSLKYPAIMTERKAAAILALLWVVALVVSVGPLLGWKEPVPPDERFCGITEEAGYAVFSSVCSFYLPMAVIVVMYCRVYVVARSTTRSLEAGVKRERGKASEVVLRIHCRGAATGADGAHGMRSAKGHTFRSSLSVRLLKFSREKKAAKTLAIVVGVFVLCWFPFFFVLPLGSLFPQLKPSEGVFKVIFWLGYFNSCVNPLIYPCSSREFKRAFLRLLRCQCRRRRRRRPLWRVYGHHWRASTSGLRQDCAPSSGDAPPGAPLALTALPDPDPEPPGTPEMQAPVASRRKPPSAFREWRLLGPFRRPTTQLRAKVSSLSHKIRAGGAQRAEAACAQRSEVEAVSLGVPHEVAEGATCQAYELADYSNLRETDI
UniProt P35368, whole entry, looked up: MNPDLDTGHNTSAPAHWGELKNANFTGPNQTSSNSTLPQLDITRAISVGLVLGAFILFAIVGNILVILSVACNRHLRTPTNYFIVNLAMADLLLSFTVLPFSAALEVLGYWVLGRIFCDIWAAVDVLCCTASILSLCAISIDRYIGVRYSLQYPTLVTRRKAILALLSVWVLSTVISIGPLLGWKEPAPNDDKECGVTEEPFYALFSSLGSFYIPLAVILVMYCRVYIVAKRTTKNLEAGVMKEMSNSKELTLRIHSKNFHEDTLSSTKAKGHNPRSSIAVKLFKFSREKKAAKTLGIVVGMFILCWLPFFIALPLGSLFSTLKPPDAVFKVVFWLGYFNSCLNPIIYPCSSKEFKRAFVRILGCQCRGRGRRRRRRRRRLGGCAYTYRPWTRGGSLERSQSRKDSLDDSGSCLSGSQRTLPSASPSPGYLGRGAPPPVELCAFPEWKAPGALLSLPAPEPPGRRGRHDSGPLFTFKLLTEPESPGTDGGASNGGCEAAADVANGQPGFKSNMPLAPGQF
UniProt P08173: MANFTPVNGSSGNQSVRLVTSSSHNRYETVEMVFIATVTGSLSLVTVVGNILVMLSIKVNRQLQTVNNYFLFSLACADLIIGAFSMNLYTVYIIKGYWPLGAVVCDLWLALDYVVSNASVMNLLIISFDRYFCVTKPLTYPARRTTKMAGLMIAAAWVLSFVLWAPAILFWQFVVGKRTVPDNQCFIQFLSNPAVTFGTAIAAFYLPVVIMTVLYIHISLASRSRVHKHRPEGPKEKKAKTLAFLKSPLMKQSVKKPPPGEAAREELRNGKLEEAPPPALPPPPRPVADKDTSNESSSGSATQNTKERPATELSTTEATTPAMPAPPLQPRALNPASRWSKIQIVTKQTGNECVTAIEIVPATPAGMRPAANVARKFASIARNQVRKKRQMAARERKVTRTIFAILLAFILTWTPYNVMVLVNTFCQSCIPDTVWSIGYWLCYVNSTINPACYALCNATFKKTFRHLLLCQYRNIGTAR
UniProt P11229: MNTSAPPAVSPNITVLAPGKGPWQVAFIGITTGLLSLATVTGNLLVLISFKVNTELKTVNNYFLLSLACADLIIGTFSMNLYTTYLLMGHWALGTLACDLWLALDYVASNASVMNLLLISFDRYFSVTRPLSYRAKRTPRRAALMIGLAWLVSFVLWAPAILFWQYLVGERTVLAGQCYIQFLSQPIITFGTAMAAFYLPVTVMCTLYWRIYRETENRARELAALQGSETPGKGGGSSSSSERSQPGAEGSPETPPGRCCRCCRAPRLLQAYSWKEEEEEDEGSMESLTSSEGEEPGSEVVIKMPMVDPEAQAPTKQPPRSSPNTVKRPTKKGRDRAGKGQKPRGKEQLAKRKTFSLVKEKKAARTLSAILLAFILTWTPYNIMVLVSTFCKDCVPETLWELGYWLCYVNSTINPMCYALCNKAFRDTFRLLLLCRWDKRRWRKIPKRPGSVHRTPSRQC
UniProt P41143, whole entry, looked up: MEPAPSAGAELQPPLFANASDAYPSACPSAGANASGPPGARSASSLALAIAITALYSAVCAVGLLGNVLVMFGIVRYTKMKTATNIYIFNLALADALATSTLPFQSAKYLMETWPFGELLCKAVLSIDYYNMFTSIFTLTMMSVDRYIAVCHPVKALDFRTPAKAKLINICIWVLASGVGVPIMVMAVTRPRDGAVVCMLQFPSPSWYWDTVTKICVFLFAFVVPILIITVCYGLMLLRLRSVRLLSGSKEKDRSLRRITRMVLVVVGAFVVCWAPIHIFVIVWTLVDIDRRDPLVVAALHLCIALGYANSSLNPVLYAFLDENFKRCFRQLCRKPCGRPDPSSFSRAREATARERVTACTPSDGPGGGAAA

As usually defined, the inhibition is the drop in the measured response relative to a control, in per cent. A higher inhibition goes with a strong effect. Regarding `CN(C)[C@H]1Cc2cccc3ncn(c23)C1`, the inhibition in [1], in [2], in [3], in [4], in [5] and in [6] was less than 50% throughout. Moreover, the inhibition in assay [7], in assay [8] and in assay [9] was less than 50% each time.
For `CN[C@H]1Cc2cccc3nc(O)n(c23)C1`, the inhibition in [1], in assay [2], in [3], in assay [4], in [5] and in assay [7] was less than 50% throughout. This compound registered an inhibition in assay [8] of less than 50%.
Turning to `CN[C@@H]1Cc2cccc3ncn(c23)C1`, the inhibition in [1], in [2], in assay [3], in assay [4], in [5] and in [6] was 64% each time. Further, the inhibition in assay [7], in assay [8] and in assay [9] was 64% in each case.
With `CN[C@@H]1Cc2cccc3[nH]c(=O)n(c23)C1` [SUMANIROLE], the inhibition in assay [1], in [2], in [3], in assay [4], in assay [5] and in assay [7] was less than 30% each time. The compound also returned an inhibition in assay [8] of less than 30%.
`CN(C)[C@@H]1Cc2cccc3nc(O)n(c23)C1`: the inhibition in assay [1], in assay [2], in [3], in assay [4], in assay [5] and in [6] was less than 30% throughout. The inhibition in assay [7], in assay [8] and in [9] was less than 30% each time.
Turning to `CN(C)[C@H]1Cc2cccc3nc(O)n(c23)C1`, the inhibition in assay [1], in assay [2], in assay [3], in assay [4], in [5] and in assay [6] was less than 50% each time. Further, the inhibition in [7], in assay [8] and in assay [9] was less than 50% in each case.
Consider `CN(C)[C@@H]1Cc2cccc3ncn(c23)C1`, for which the inhibition in [1], in assay [2], in assay [3], in [4], in [5] and in [6] was less than 30% in each case. In addition, the inhibition in assay [7], in assay [8] and in assay [9] was less than 30% throughout.
Regarding `CCCN[C@@H]1Cc2cccc3nc(O)n(c23)C1`, the inhibition in assay [1], in assay [2], in assay [3], in assay [4], in [5] and in [7] was less than 30% each time. The inhibition in assay [8] was less than 30%.
